From ChEMBL document CHEMBL5046221, “Identification of Pyrimidine-Based Lead Compounds for Understudied Kinases Implicated in Driving Neurodegeneration” (J Med Chem, 2022) come the findings set out here.

By UniProt entry, the sequences of proteins in these tests, tags left out. Where a name states a change or a piece, a line headed by the entry shows the natural chain unless it says otherwise.
UniProt Q5S007: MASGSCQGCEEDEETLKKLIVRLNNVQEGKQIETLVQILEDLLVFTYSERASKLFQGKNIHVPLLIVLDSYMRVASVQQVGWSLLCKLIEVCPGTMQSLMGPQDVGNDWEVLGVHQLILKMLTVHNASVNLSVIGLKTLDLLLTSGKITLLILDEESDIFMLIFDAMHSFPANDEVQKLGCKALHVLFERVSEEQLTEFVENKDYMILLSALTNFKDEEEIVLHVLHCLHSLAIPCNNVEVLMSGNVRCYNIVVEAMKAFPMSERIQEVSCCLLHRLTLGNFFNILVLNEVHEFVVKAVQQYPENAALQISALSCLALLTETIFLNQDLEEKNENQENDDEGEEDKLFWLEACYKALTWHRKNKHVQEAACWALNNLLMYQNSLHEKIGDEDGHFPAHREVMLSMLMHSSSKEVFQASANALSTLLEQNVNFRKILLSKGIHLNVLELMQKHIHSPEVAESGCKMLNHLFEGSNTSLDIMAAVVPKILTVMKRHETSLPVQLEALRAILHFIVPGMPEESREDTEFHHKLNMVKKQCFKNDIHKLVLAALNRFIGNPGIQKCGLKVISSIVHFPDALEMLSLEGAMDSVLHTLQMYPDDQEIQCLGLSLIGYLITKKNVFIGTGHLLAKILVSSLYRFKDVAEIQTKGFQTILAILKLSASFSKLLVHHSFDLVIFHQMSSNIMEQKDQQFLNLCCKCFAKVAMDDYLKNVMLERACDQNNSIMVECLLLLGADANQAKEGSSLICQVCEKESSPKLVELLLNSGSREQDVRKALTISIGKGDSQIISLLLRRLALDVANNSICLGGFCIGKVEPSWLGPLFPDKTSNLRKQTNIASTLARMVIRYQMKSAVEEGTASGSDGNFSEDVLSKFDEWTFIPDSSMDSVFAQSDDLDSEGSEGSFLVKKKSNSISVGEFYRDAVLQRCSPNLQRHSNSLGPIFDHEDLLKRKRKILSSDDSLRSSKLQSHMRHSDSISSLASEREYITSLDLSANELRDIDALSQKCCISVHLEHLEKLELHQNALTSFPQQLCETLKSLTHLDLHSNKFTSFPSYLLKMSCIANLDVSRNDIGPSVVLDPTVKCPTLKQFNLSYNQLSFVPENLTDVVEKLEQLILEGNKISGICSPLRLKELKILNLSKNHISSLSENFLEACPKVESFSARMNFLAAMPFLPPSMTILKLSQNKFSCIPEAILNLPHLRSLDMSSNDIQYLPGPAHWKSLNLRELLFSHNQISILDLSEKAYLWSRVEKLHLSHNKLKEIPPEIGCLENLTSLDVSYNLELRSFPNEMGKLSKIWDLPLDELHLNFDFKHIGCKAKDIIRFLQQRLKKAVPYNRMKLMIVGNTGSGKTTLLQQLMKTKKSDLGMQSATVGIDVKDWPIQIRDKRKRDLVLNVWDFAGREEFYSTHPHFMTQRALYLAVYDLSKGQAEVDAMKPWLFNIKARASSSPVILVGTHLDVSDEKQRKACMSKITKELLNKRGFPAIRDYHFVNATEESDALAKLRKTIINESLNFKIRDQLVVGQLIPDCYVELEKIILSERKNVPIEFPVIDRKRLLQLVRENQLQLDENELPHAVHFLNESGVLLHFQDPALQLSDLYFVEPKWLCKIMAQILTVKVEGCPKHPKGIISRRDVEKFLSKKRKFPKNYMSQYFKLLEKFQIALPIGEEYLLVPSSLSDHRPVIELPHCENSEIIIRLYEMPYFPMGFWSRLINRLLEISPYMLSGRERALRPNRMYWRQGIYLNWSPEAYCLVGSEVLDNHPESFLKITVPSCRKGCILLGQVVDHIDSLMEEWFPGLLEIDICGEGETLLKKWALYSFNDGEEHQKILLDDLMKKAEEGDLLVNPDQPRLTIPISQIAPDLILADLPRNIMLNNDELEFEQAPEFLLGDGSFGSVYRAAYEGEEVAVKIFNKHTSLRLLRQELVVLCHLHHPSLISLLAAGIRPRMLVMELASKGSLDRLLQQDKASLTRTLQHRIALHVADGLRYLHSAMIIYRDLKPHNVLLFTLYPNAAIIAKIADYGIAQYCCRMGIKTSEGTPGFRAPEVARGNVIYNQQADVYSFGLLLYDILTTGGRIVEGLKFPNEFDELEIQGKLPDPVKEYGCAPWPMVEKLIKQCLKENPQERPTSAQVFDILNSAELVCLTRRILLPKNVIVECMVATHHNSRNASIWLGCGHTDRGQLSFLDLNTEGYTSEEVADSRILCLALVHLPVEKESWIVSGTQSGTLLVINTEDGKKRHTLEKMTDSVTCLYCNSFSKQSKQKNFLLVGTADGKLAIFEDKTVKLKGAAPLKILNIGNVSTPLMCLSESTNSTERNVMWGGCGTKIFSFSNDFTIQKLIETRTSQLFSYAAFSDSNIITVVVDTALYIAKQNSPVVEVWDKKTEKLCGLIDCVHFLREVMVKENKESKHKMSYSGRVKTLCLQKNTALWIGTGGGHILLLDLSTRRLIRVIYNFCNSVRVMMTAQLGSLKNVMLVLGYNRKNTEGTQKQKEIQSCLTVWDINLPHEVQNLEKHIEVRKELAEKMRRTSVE

Test [1] concerns the target T1, Leucine-rich repeat serine/threonine-protein kinase 2 (Homo sapiens, UniProt Q5S007). The experiment in a line: Inhibition of NanoLuc-fused LRRK2 (unknown origin) expressed in HEK293 cells incubated for 2 hrs by NanoBRET assay. Format: cell-based. In a few lines: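 Cellular target engagement by NanoBRET in dose–response, done in singlicate by Carna Biosciences following the manufacturer's protocol. Compounds tested at concentrations up to 10 μM.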
(In general: BRET reads energy transfer from a luciferase to a nearby fluorophore.)

The target of test [2] is T1, Leucine-rich repeat serine/threonine-protein kinase 2. As to the kind of experiment: Inhibition of recombinant human LRRK2 (970 to end residues) using RLGRDKYKTLRQIRQ as substrate incubated for 40 mins in presence of [gamma-33P-ATP] by radiometric scintillation assay. In a few lines:
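Eurofins radiometric kinase assay run at ATP equal to Km for each kinase. 9-point dose–response in duplicate gives the IC50.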

For the compound `Cc1nn(CC(F)(F)F)cc1Nc1ncc(Br)c(NCc2ccc(S(N)(=O)=O)cc2)n1`, the 50% inhibitory concentration (IC50) was above 10000 nM in test [1] and 159 nM in test [2].

What is called IC50 is the concentration that inhibits the measured activity by half.
